{"source": "patent US20120273099A1", "about": "“REDUCED TOXICITY HYPERGOLIC PROPELLANTS” (published 2012)", "key": {"[1]": {"conditions": "cited from earlier work; for recognized hazard of state-of-the-art propellant components: background statement; for carcinogenicity / hazard on ingestion / irritation / harm on contact or inhalation: according to MSDS; for vapor pressure: in words"}, "[2]": {"assay": "Storage stability / propellant degradation over time", "conditions": "Table 2, grade in words"}, "[3]": {"assay": "Dissolution of sodium borohydride in solvent", "conditions": "in DMF"}}, "data": [{"compound": "NN", "values": [{"measurement": "recognized hazard of state-of-the-art propellant components", "setting": "[1]", "value": "carcinogenic"}]}, {"compound": "nitrogen tetroxide", "values": [{"measurement": "recognized hazard of state-of-the-art propellant components", "setting": "[1]", "value": "toxic and lethal upon acute exposure"}]}, {"compound": "O=[N+]([O-])O", "values": [{"measurement": "recognized hazard of state-of-the-art propellant components", "setting": "[1]", "value": "extremely corrosive"}]}, {"compound": "monomethylhydrazine", "values": [{"measurement": "Low Temperature Storage", "setting": "[2]", "value": "Good"}, {"measurement": "Room Temperature Storage", "setting": "[2]", "value": "Good"}, {"measurement": "Toxicity/Mutagenicty", "setting": "[1]; Table 2", "value": "Both, with moderate"}]}, {"compound": "C[S+](C)[O-]", "values": [{"measurement": "carcinogenicity", "setting": "[1]", "value": "no recognized carcinogenic components"}, {"measurement": "hazard on ingestion", "setting": "[1]", "value": "can be lethal"}, {"measurement": "irritation / harm on contact or inhalation", "setting": "[1]", "value": "irritant that can be harmful if inhaled or spilled onto skin"}]}, {"compound": "CN(C)C=O", "values": [{"measurement": "mutagenicity", "setting": "[1]; MSDS, chronic exposure", "value": "may result in mutagenic effects"}, {"measurement": "hazard on ingestion", "setting": "[1]", "value": "may potentially cause liver damage"}, {"measurement": "irritation / harm on contact or inhalation", "setting": "[1]", "value": "irritant that can be harmful if inhaled or spilled onto skin"}, {"measurement": "vapor pressure", "setting": "[1]", "value": "low"}]}, {"compound": "sodium borohydride", "values": [{"measurement": "carcinogenicity", "setting": "[1]", "value": "not carcinogenic"}, {"measurement": "irritation / harm on contact or inhalation", "setting": "[1]", "value": "capable of causing severe irritation and burns if eaten or let into contact with skin"}, {"measurement": "concentration up to which sodium borohydride completely dissolves", "setting": "[3]", "value": "approximately 18 % by weight"}]}, {"compound": "tetraethyl glycol dimethyl ether", "values": [{"measurement": "carcinogenicity", "setting": "[1]", "value": "not listed as a carcinogen"}, {"measurement": "hazard on ingestion", "setting": "[1]", "value": "can be lethal"}, {"measurement": "irritation / harm on contact or inhalation", "setting": "[1]", "value": "irritant that can affect the skin, eyes, and digestive track"}]}, {"compound": "COCCOCCOCCOC", "values": [{"measurement": "carcinogenicity", "setting": "[1]", "value": "no recognizable carcinogens or toxins"}, {"measurement": "irritation / harm on contact or inhalation", "setting": "[1]", "value": "may cause irritation"}, {"measurement": "vapor pressure", "setting": "[1]", "value": "low"}]}]}
